The values below come from publication PMC12202309 (International Journal of Neuropsychopharmacology, 2025).

The conditions of data set [1]: mouse, in vivo.
The conditions of data set [2]: 0.5 mg/kg IV DMO. How it is done: After a 1-week acclimation period, the mice were randomly assigned to 2 experimental groups of 36 animals each: (1) an LPS group was given a single 4 mg/kg intraperitoneal (IP) injection of lipopolysaccharide (LPS), serotype O55:B05 (Sigma) and (2) a control group received a vehicle (sterile phosphate-buffered saline). […] The volume load for mice weighing 25 g was 125 µL. […] The doses of DMSO and MC were 276 and 25 mg/kg. […] Sampling was performed at 2 intervals in each of the 18 mice injected with LPS and 18 controls. The first blood volume of 150 µL was taken into an EDTA-microvette CB 300 (Sardstedt) from a drop of blood after a small incision at the end of the tail. At the termination interval, the second blood sample was collected by cardiac puncture in terminal anesthesia, and then the animal was put to death by decapitation. […] The injected volume was 1 mL/kg, that is, 25 µL for a 25 g mouse. […] The injected volume was 2.5 mL/kg, that is, 75 µL for a 25 g mouse. […]
The calculation of the point estimate and the 95% bootstrap t-confidence interval for AUCt was performed with the help of the R-package PK (https://cran.r-project.org/web/packages/PK/index.html). Total brain-to-plasma drug partition coefficient (Kp,brain) and unbound brain-to-unbound plasma partition coefficient (Kp,uu, brain) were calculated using Equations 3 and 4: […]
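Throughout, for ka: pharmacokinetic model fitted to concentration-time data, with between-animal variability described exponentially, residual error proportional, and effect of LPS injection assessed on clearance and distribution volumes.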
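Throughout, for βV1 LPS: pharmacokinetic model fitted to concentration-time data, with between-animal variability described exponentially, residual error proportional, and effect of LPS injection assessed on clearance and distribution volumes.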
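Throughout, for βV2 LPS: pharmacokinetic model fitted to concentration-time data, with between-animal variability described exponentially, residual error proportional, and effect of LPS injection assessed on clearance and distribution volumes.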
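Throughout, for ωka, percent interindividual variability: pharmacokinetic model fitted to concentration-time data, with between-animal variability described exponentially, residual error proportional, and effect of LPS injection assessed on clearance and distribution volumes.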

As for `Cc1cc2c(s1)Nc1ccccc1N=C2N1CCN(C)CC1` [olanzapine], in data set [1] (C57BL/6N), the ka is reported as 2.9 (48%) hour^−1 and the “ωka, percent interindividual variability” value was 145 (30%). For the same molecule, in data set [1], the βV1_LPS entry is recorded as “ns” and the βV2_LPS entry is reported as “ns”. In addition, the “detection in the plasma after IV administration of DMO” value in data set [2] is recorded as “undetectable”.
